The values that follow come from PMC9191634, “Molecular determinants of inhibition of the human proton channel hHv1 by the designer peptide C6 and a bivalent derivative” (Proceedings of the National Academy of Sciences of the …, 2022).

Among the targets are hHv1-E196C (human) (UniProt Q96D96); hHv1-H193C (human) (UniProt Q96D96); hHv1-E192C (human) (UniProt Q96D96); hHv1-D185C (human) (UniProt Q96D96).
What all share (assay): other; +40 mV
Details in all cases: designed binder

The target of experiment [1] is hHv1-V187A (Homo sapiens).
In experiment [2] the target is hHv1-I186C (Homo sapiens).
The target in experiment [3] is hHv1-Q194A (Homo sapiens).
Experiment [4] has as its target hHv1-E196A (Homo sapiens).
Experiment [5] has as its target hHv1-Q191C (Homo sapiens).
Experiment [6] has as its target hHv1-V187A (Homo sapiens). The source holds these as a separate data set.
The target of experiment [7] is hHv1-F195C (Homo sapiens).
Experiment [8] concerns the target hHv1-L189A (Homo sapiens).
Experiment [9] concerns the target hHv1-L188C (Homo sapiens).
Experiment [10] concerns the target hHv1-L184C (Homo sapiens).
The target of experiment [11] is hHv1-F190C (Homo sapiens).
For experiment [12], the target named is hHv1-I183C (Homo sapiens).
In experiment [13] the target is hHv1-L200A (Homo sapiens).
Experiment [14] concerns the target hHv1-Q194C (Homo sapiens).
For experiment [15], the target named is hHv1-Q194A (Homo sapiens). This is another data set of the same source.
The target of experiment [16] is hHv1-E196A (Homo sapiens). This is another data set of the same source.

In the case of C6 peptide, the Ki in experiment [1] amounted to 3350 nM; in [2] it was 43 nM; in experiment [3] it was 240 nM; in [4], 1540 nM; with hHv1-E196C (human) it was 1820 nM; in experiment [5] it was 338 nM. For the same substance, the Ki in experiment [6] came to 3300 nM; in experiment [7], 109 nM; in experiment [8], 26 nM; in the experiment with hHv1-H193C (human), 1630 nM; in experiment [9], 335 nM; in experiment [10] it was 682 nM. Moreover, the Ki came to 14100 nM in the experiment with hHv1-E192C (human); 19 nM in experiment [11]; 34 nM in [12]; 1600 nM in experiment [13]; 7 nM with hHv1-D185C (human); 183 nM in experiment [14]. Moreover, the Ki in experiment [15] worked out at 244 nM; in experiment [16] it was 1500 nM.
